Each block holds one compound with its values, some of them ahead of it.
Columns and labels:
mA1AR = mA1AR (Mus musculus, UniProt Q60612); assay: Guanine nucleotide ([35S]GTPγS) binding assay; assay type: biochemical
Experimental: cLogP was calculated using ChemDraw Professional, v. 16.0. Binding selectivity for mA1Ar is expressed in terms of fold, compared to mA3AR (Data from Table 1).

Sequences of proteins named here, by UniProt entry; tags and fusion partners are left off.
UniProt Q60612, whole entry: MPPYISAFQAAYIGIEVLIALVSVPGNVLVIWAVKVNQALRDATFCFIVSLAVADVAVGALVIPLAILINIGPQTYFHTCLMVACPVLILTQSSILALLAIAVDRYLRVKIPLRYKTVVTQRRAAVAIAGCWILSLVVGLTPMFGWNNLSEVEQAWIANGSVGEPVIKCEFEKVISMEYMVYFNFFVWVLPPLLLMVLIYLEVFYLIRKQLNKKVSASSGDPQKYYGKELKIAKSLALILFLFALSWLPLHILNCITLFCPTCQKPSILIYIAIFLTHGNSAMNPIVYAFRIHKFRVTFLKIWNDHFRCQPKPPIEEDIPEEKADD
UniProt Q60613, whole entry: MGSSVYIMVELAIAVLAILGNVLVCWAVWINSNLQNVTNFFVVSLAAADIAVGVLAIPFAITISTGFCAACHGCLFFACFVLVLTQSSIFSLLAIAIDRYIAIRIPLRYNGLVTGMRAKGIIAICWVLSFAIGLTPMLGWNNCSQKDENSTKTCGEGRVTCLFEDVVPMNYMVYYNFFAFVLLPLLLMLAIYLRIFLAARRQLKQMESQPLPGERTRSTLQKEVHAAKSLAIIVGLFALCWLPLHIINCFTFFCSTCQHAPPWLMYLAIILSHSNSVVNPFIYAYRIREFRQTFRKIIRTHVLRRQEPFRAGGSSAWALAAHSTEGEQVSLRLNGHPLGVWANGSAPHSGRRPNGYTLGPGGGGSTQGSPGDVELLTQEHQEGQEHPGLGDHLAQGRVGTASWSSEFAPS
UniProt P28647, whole entry: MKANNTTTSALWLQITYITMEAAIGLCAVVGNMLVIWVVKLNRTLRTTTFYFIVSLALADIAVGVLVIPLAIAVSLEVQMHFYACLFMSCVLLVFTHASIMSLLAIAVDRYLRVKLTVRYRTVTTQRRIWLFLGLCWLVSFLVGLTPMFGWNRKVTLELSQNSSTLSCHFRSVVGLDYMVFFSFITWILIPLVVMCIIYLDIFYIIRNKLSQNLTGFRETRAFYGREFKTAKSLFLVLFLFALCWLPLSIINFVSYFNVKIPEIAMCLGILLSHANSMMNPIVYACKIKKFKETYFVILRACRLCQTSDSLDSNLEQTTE

mA2AAR = mA2AAR (Mus musculus, UniProt Q60613); assay: Adenosine receptor binding, mA2AAR
rA3AR = rA3AR (Rattus norvegicus, UniProt P28647); assay: Adenosine receptor binding, rA3AR; conditions: (r), read-out: A3AR % inhibition or Ki
[1] = biological target: TSPO (translocator protein) (UniProt P30536); assay: Off-target interaction determined by the PDSP; assay type: binding, human; conditions: read-out: Off-target, receptor (h, unless noted) (Ki, μM): TSPO

Compound: OC[C@H]1O[C@@H](n2cnc3c(NC(C4CCC4)C4CCC4)ncnc32)[C@H](O)C1O (stereo in doubt) [Compound 9, (2R,3R,4R,5R)-2-(6-((Dicyclobutylmethyl)amino)-9H-purin-9-yl)-5-(hydroxymethyl)tetrahydrofuran-3,4-diol]
- Emax at 10 µM (mA1AR): 101 ± 7%

Compound: O[C@@H]1[C@H](O)[C@@H](CCl)O[C@H]1n1cnc2c(NC3CC4CCC3C4)ncnc21 (some centres unmarked) [Compound 4, reference compound]
- Ki (mA2AAR; (m), values without % sign (Ki), read-out: A2AAR % inhibition): 3.99 µM

- inhibition at 10 µM (mA2AAR; read-out: A2AAR % inhibition (converted)): 34%
Compound: O[C@@H]1[C@H](O)[C@@H]2C[C@@H]2[C@H]1n1cnc2c(NC(C3CC3)C3CC3)nc(Cl)nc21 [Compound 7, reference compound]

- Ki (rA3AR): 0.063 µM
Compound: CNC(=O)[C@H]1O[C@@H](n2cnc3c(N)ncnc32)[C@H](O)[C@@H]1O [Compound 15, reference compound]

- Ki [1]: 2.5 µM
Compound: CCOC(=O)[C@@]12C[C@@H]1[C@@H](n1cnc3c(NC(C4CC4)C4CC4)nc(Cl)nc31)[C@H](O)[C@@H]2O [Compound 32]
